# Experimental data reported in PubChem BioAssay AID1779 (Sanford-Burnham Center for Chemical Genomics, 2009).
# Protein sequences, listed by entry. Tags and fused reporters are not part of them.
# UniProt Q9Y2R2, whole entry: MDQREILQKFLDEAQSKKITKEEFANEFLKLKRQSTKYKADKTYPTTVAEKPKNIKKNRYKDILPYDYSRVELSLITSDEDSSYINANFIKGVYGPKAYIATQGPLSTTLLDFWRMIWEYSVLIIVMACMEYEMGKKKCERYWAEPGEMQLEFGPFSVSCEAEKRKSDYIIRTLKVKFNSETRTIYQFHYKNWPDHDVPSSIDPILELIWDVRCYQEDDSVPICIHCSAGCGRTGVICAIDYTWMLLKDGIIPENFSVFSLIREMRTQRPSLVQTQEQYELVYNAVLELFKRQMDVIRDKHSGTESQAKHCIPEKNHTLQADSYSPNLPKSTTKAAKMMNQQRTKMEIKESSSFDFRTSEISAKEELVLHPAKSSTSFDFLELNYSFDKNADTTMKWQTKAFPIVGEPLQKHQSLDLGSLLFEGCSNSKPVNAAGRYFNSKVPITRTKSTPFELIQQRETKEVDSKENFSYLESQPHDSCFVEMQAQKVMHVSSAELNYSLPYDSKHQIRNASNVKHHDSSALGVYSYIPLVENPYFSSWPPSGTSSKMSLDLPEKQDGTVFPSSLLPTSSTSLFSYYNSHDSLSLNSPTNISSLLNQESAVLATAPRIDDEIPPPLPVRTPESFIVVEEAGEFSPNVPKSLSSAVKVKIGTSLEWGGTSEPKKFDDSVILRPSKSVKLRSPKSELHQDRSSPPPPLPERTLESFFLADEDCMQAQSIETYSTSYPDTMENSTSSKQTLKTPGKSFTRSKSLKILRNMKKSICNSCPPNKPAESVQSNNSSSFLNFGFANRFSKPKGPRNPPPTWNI
# Only a part is listed here, and it is no random draw. Some salts or complexes appear as unconnected parts, following the source record. Active and inactive are the calls of the source. Cut-off read from the data, not from the text of the source: active = inhibition above about 50%; inactive = the rest.
# Target: Tyrosine-protein phosphatase non-receptor type 22 (Homo sapiens) (UniProt Q9Y2R2)
# Test: inhibitors of LYP phosphatase, biochemical, fluorescence intensity, uHTS (AID 1779);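 note: plate controls were vehicle with enzyme for no effect and no enzyme for full effect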
# Details: recombinant LYP phosphatase, at 11.5 µM, stronger effect = higher value
row,SMILES,inhibition
1,CP(=O)(OC12CC3CC(CC(C3)C1)C2)OC12CC3CC(CC(C3)C1)C2,inactive: 3%
2,CCOC(=O)c1ccc(NP(C)(=O)Oc2ccc(Cl)cc2)cc1 (stereo not given),inactive: 2.4%
3,CP(=O)(Oc1ccccc1)N1CCOC1=O (stereo not given),inactive: -8.9%
4,CCc1ccc(OP(C)(=O)Nc2cccnc2)cc1 (stereo not given),inactive: 0.6%
5,COc1ccccc1OP(C)(=O)Nc1c(C)n(C)n(-c2ccccc2)c1=O (stereo not given),inactive: -2.4%
6,O=C(OCCCN1CCCC1)C(O)(c1ccccc1)C1CCCCC1 (stereo not given),inactive: -5.6%
7,CCN(CC)CC(O)COC(=O)C(O)(c1ccccc1)C1CCCCC1 (stereo not given),inactive: -5.8%
8,COc1ccc(OP(C)(=O)Nc2ccc(Br)cc2)cc1 (stereo not given),inactive: -3.6%
9,CN(C)C(=O)c1c([N+](=O)[O-])cc([N+](=O)[O-])cc1[N+](=O)[O-],inactive: -5.3%
10,CP(=O)(Nc1ccc(Cl)cc1)Oc1ccc(F)cc1 (stereo not given),inactive: -2.9%
11,CC(C)(C)c1ccc(OP(C)(=O)O)cc1,inactive: 1%
12,COc1ccccc1OP(C)(=O)Nc1ccccc1Br (stereo not given),inactive: -1.5%
13,CN(C)CCOC(=O)C(O)(c1ccccc1)C1CCCC1 (stereo not given),inactive: -5.1%
14,COc1ccc(OP(C)(=O)Nc2ccccn2)cc1 (stereo not given),inactive: -8.7%
15,COc1ccccc1OP(C)(=O)Nc1ccc(Br)cc1 (stereo not given),inactive: -5.2%
16,CCc1ccc(OP(C)(=O)O)cc1,inactive: -11%
17,CP(=O)(Nc1ccccn1)Oc1ccccc1 (stereo not given),inactive: 2.2%
18,COc1ccccc1OP(C)(=O)Nc1ccc(C)cc1C (stereo not given),inactive: -8.6%
19,O=[N+]([O-])c1cc([N+](=O)[O-])c(Nc2ccccn2)c([N+](=O)[O-])c1,inactive: -7.8%
20,Cc1c(NP(C)(=O)Oc2ccc(C(C)C)cc2)c(=O)n(-c2ccccc2)n1C (stereo not given),inactive: -7%
21,COc1ccc(OP(C)(=O)Nc2ccccc2Br)cc1 (stereo not given),inactive: -5.8%
22,COc1ccccc1OP(C)(=O)Nc1ccc(C)c(C)c1 (stereo not given),inactive: 0.9%

row,SMILES,inhibition
1,Cc1cc(C)cc(OP(C)(=O)Nc2cccc(C(F)(F)F)c2)c1 (stereo not given),inactive: -1%
2,CP(=O)(OCCOc1ccccc1)OCCOc1ccccc1,inactive: 0.2%
3,CP(=O)(Nc1ccc(Cl)cc1Cl)Oc1ccccc1 (stereo not given),inactive: -1%
4,Cc1nc2ccc3ccccc3c2o1.O=[N+]([O-])c1cc([N+](=O)[O-])c(O)c([N+](=O)[O-])c1,inactive: -4.2%
5,COc1ccc(OP(C)(=O)Nc2ccc(SC(F)(F)F)cc2)cc1 (stereo not given),inactive: -5.3%
6,CCOC(=O)c1ccc(NP(C)(=O)Oc2ccc(F)cc2)cc1 (stereo not given),inactive: -0.6%
7,CCCCCOc1ccc(NP(C)(=O)Oc2ccc(Cl)cc2Cl)cc1 (stereo not given),inactive: 0.6%
8,O=[N+]([O-])c1cc([N+](=O)[O-])c(OC2CCCCC2O)c([N+](=O)[O-])c1 (stereo not given),inactive: -3.3%
9,CP(=O)(Nc1ccccc1)Oc1ccc(F)cc1 (stereo not given),inactive: -5.5%
10,CCN(CC)CCCOC(=O)C(O)(c1ccccc1)C1CCCCC1 (stereo not given),inactive: -10.2%
11,CC(C)c1ccc(OP(C)(=O)Nc2ccc(SC(F)(F)F)cc2)cc1 (stereo not given),inactive: 0.5%
12,CP(=O)(Nc1ccccc1F)Oc1ccccc1 (stereo not given),inactive: -10.8%
13,COc1ccc2c(c1O)-c1c(O)c(OC)cc3c1[C@H](C2)[N+](C)(C)CC3.O=[N+]([O-])c1cc([N+](=O)[O-])c([O-])c([N+](=O)[O-])c1[O-],inactive: -6.1%
14,O=C(OCCN1CCN(CCOCc2ccccc2)CC1)C(O)(c1ccccc1)c1ccccc1,inactive: -8.9%
15,O=C(OC1CN2CCC1CC2)c1ccc([N+](=O)[O-])cc1 (stereo not given),inactive: -8.3%
16,CCOP(C)(=S)SCC(=O)NC(C)(CC)C(=O)O (stereo not given),inactive: -0.1%
17,CP(=O)(Nc1ccc(SC(F)(F)F)cc1)Oc1ccc(F)cc1 (stereo not given),inactive: -6.4%
18,Cc1ccccc1NP(C)(=O)Nc1ccccc1C,inactive: -2.5%
19,CP(=O)(Nc1ccc2c(c1)OCCO2)Oc1ccccc1 (stereo not given),inactive: 2.8%
20,COc1ccc(NP(C)(=O)Oc2ccccc2OC)cc1 (stereo not given),inactive: -5.8%
21,CN(C)CCOC(=O)C(O)(c1ccccc1)C1CCCCC1 (stereo not given),inactive: -12.1%
22,COc1ccc(OP(C)(=O)Nc2cccc(Br)c2)cc1 (stereo not given),inactive: -2.8%

row,SMILES,inhibition
1,O=[N+]([O-])c1cc([N+](=O)[O-])c(NCC2CCS(=O)(=O)C2)c([N+](=O)[O-])c1 (stereo not given),inactive: -1.4%
2,Cc1cc(-c2cccc3ccccc23)c(C)cn1.O=[N+]([O-])c1cc([N+](=O)[O-])c(O)c([N+](=O)[O-])c1,inactive: -0.1%
3,O=[N+]([O-])c1ccc(OP2(=O)COCCO2)cc1 (stereo not given),inactive: -4.6%
4,O=[N+]([O-])c1cc([N+](=O)[O-])c(Nc2nnnn2CCO)c([N+](=O)[O-])c1,inactive: -1.6%
5,CCOC(=O)C(CC)C1=NC(C)(C)Cc2ccccc21.O=[N+]([O-])c1cc([N+](=O)[O-])c(O)c([N+](=O)[O-])c1 (stereo not given),inactive: -1.7%
6,CP(=O)(Nc1ccc(SC(F)(F)F)cc1)Oc1ccccc1 (stereo not given),inactive: -3%
7,CCCOc1ccc(NP(C)(=O)Oc2ccc(Cl)cc2)cc1 (stereo not given),inactive: -5.7%
8,CN1CCCCC1COC(=O)C1(O)c2ccccc2CCc2ccccc21 (stereo not given),inactive: 2%
9,COc1ccccc1OP(C)(=O)Nc1c(C)cccc1C (stereo not given),inactive: -2.3%
10,O=[N+]([O-])c1cc([N+](=O)[O-])c(-n2nnc3ccccc32)c([N+](=O)[O-])c1,inactive: -8.6%
11,Cc1nc2ccc3ccccc3c2s1.O=[N+]([O-])c1cc([N+](=O)[O-])c(O)c([N+](=O)[O-])c1,inactive: -4.6%
12,Cc1cc(C)cc(OP(C)(=O)Nc2ccc(C)cc2C)c1 (stereo not given),inactive: -7.7%
13,CCOC(=O)c1ccc(NP(C)(=O)Oc2cc(C)cc(C)c2)cc1 (stereo not given),inactive: -0.7%
14,COc1ccccc1OP(C)(=O)Nc1cccc(Br)c1 (stereo not given),inactive: -7.7%
15,CP(=O)(Nc1cccc(Br)c1)Oc1ccccc1 (stereo not given),inactive: -2.9%
16,Cc1cc(C)cc(OP(C)(=O)Nc2ccccn2)c1 (stereo not given),inactive: -8.9%
17,Cc1ccc(C)c(NP(C)(=O)Oc2ccccc2)c1 (stereo not given),inactive: -6.6%
18,O=C(O)c1cccc(Nc2c([N+](=O)[O-])cc([N+](=O)[O-])cc2[N+](=O)[O-])c1,inactive: 0.6%
19,CC1=NCCc2c1[nH]c1ccccc21.O=[N+]([O-])c1cc([N+](=O)[O-])c(O)c([N+](=O)[O-])c1,inactive: -1.4%
20,CC(C)(C)c1ccc(OP(C)(=O)Nc2ccc(SC(F)(F)F)cc2)cc1 (stereo not given),inactive: 10.4%
21,Cc1cccc(C)c1OP(C)(N)=O (stereo not given),inactive: -10.6%
22,O=[N+]([O-])c1ccc2c(c1)C=Nc1ccccc1O2,inactive: 2.6%

row,SMILES,inhibition
1,COc1ccccc1OP(C)(=O)Nc1cc(Cl)ccc1C (stereo not given),inactive: -4.5%
2,COc1ccc(OP(C)(=O)Nc2cccc(F)c2)cc1 (stereo not given),inactive: -1.4%
3,Cc1cc(C)cc(OP(C)(N)=O)c1 (stereo not given),inactive: -4.5%
4,CCOC(=O)c1ccc(NP(C)(=O)Oc2ccccc2)cc1 (stereo not given),inactive: -6.3%
5,COc1ccccc1OP(C)(=O)Nc1ccc(C)cc1 (stereo not given),inactive: -5%
6,Cc1ccc(NP(C)(=O)Oc2ccccc2)c(C)c1 (stereo not given),inactive: -2.9%
7,CCN(CC)CCCOC(=O)C(O)(c1ccccc1)c1ccccc1,inactive: -1.4%
8,CCc1ccc(OP(C)(=O)N2CCN(c3ccc([N+](=O)[O-])cc3)CC2)cc1 (stereo not given),inactive: -7.7%
9,CP(=O)(NC(=O)Nc1ccccc1)Oc1ccccc1 (stereo not given),inactive: -8.1%
10,Cc1cc(C)cc(OP(C)(=O)Nc2ccc(SC(F)(F)F)cc2)c1 (stereo not given),inactive: 1.9%
11,CP(=O)(Nc1ccc(SC(F)(F)F)cc1)Oc1ccc(Cl)cc1 (stereo not given),inactive: 1.6%
12,Cc1cccc(C)c1OP(C)(=O)Nc1ccc(SC(F)(F)F)cc1 (stereo not given),inactive: 4.5%
13,CP(=O)(Oc1ccccc1)OC(c1ccccc1)C(F)(F)F (stereo not given),inactive: -1.1%
14,CP(=O)(Nc1ccccn1)Oc1ccc(Cl)cc1 (stereo not given),inactive: -11.1%
15,CCOP(C)(=S)SCC(=O)NC(C)C(=O)O (stereo not given),inactive: -4.4%
16,CCOC(=O)c1ccc(NP(C)(=O)Oc2ccc(OC)cc2)cc1 (stereo not given),inactive: -9.5%
17,COc1ccccc1OP(C)(=O)Nc1ccccc1 (stereo not given),inactive: -7.2%
18,CP(=O)(Nc1ccccc1Br)Oc1ccccc1 (stereo not given),inactive: -7.2%
19,CP(=S)(Nn1cnnc1)Oc1ccccc1 (stereo not given),inactive: -10%
